For the assay, the system named is HEK293. Briefly: Antiproliferative activity against HEK293 cells assessed as reduction of cell growth after 72 hrs by MTT method. In kind it is cell-based, Homo sapiens. In general terms: Formazan colour is commonly taken as a measure of viable cells.

pIC50: −log10 of the molar value.

Among the data in ChEMBL document CHEMBL1155685, “Antiproliferative triterpene saponins from Trevesia palmata” (J Nat Prod, 2000) are IC50 values, retold here.

For orientation: pIC50 means the IC50 on a negative log10 scale, so that one unit is a factor of ten. On to `Sc1ncnc2nc[nH]c12` [MERCAPTOPURINE ANHYDROUS], for which the pIC50 is 8.15.
